Experimental data from PubChem BioAssay AID652147 (Johns Hopkins Ion Channel Center, 2013).
The list shows a part of the results, in another mix than the full data. Active and inactive are the calls of the source.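 How the source made its calls: active means mean percent inhibition of duplicate wells above the buffer-only control mean plus 3 SD of those controls; inactive means the rest.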

These compounds were tested against Potassium voltage-gated channel subfamily E member 1 (Homo sapiens) + Potassium voltage-gated channel subfamily KQT member 1 (Homo sapiens) (UniProt P15382+P51787) (assay: block of human IKs channel complex – CHO-K1 cells, thallium flux, FluxOR, selectivity assay for KCNQ1 inhibitor project (AID 652147;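 further: 0% = buffer only wells and 100% = XE-991 inhibitor control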)). Settings: KCNQ1/KCNE1 cells, FluxOR thallium flux fluorescence; at 10 µM; hits give high values.
Procedure, shortened: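 System – KCNQ1/KCNE1 cells · Also added – depolarizing thallium/potassium stimulus, 5x stock with 12.5 mM Tl2SO4 and K2SO4 · Incubation – dye 90 min and compound 20 min at room temperature · Signal – kinetic FluxOR thallium-sensitive fluorescence, 1 Hz sampling, 150 s post-stimulus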
`COc1cc(C(=O)NCC2(N3CCOCC3)CCCCC2)cc(Cl)c1OC(C)C` was tested, and the inhibition was active: 63.5%.
`CCC1=CC2Cc3nc4ccc(Cl)cc4c(N)c3C(C1)C2` (configuration not stated) was tested, and the inhibition was active: 110%.
